Earlier results, collected in patent publication US8623416B2 (priority 2009, dated 2014).

Assays:
[1] = in vivo; cited from earlier work
[2] = system: tissue and cellular membranes; conditions: cited from earlier work
[3] = in vivo, cited from earlier work

## 3 beta-N-1-(N-[3-(4-aminobutyl)]-1,3-diaminopropane)-7 alpha,24 zeta-dihydroxy-5 alpha-cholestane 24-sulfate [squalamine]
[1]
  dose selected as the Phase II dose: 300 mg/m(2)/day
  dose-limiting toxicity: two of three patients at 400 mg/m(2)/day had dose-limiting toxicity
[2]
  concentrations of squalamine that damage tissue and cellular membranes: > 100 µg/mL
[3]; human
  mean clearance (percentage coefficient of variation): 2.67 liters/h/m(2)
  mean half-life: 9.46 h
  mean volume of distribution: 36.84 liters/m(2)
[3]
  principal dose-limiting toxicity: Hepatotoxicity
  steady-state concentrations: 20.08 micro g/ml
